This is a selection; strong and weak results do not stand in their true shares. Inconclusive results are not listed. Activity calls are given as the source filed them. Calls come from the whole dose curve; as a rule, active = well fitted inhibition curve with a large enough effect; inconclusive = small, poorly fitted or top-dose-only effect, or effect the other way; inactive = no such curve, though single readings can be large or run the other way.
target: Runt-related transcription factor 1 (Homo sapiens) + Core-binding factor subunit beta (Homo sapiens) (UniProt Q01196+Q13951); experiment: qHTS Assay for Compounds Blocking the Interaction Between CBF-beta and RUNX1 for the Treatment of Acute Myeloid Leukemia: Hit Validation with Orthogonal Assay; conditions: CBFbeta-RUNX1 binding orthogonal assay, biochemical; at 41 µM (top of the series)
% is set by controls: 0 for no effect and ±100 for the full control effect.

Sequences of proteins named here, by UniProt entry; tags and fusion partners are left off.
UniProt Q01196, whole entry, looked up: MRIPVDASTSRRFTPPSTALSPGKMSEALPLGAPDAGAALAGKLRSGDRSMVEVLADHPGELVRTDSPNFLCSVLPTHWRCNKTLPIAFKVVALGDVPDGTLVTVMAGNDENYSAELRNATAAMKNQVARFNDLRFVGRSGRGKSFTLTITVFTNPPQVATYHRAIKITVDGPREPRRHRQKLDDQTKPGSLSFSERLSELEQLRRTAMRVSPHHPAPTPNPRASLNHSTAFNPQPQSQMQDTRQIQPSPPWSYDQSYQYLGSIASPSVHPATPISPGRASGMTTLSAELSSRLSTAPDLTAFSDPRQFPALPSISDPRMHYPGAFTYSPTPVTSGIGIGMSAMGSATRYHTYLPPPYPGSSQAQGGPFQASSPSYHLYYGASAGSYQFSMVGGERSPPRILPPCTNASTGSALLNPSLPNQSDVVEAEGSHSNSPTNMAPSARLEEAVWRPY
UniProt Q13951, whole entry, looked up: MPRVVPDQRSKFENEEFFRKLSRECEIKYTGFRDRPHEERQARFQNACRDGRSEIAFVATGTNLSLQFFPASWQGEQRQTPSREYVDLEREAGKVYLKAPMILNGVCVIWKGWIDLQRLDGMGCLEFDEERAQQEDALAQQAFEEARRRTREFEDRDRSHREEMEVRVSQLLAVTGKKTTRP

SMILES | activity change, negative = inhibition
O=[N+]([O-])c1ccc(OP2(=O)COCCO2)cc1 (stereo unspecified) | inactive: 20.1%

From PubChem BioAssay AID504375 (National Center for Advancing Translational Sciences (NCATS), 2011)
